We go through one molecule from patent publication US4101676A, “Diphenylpropylamines to treat depression” (Beecham Group Limited, priority 1973, dated 1978).

Counter-ions that a name gives are not always drawn.

This experiment deals with T1, Guinea Pig Ileum (Cavia porcellus).
T1 construct: from tissue; host or cells: guinea pig ileum
The experiment can be described thus: pA2 Determination on Guinea Pig Ileum (antagonism to Acetylcholine). The note with it: in vitro, read-out: pA2 on Iillium (converted). The text has this:
It is thus a means of expressing anticholinergic activity which is independent of the dose of Acetylcholine and the piece of tissue used. The method used is similar to that of Schild, [Brit. J. Pharmacol. 14 (1959) 48] the tissue being bathed in Tyrode solution and a dose response curved for Acetylcholine being obtained.

`CN(C)CCC=C1c2ccccc2CCc2ccccc21` [Amitriptyline hydrochloride, reference compound]: the Kb was 10 nM.
